# Patent US20240327353A1
# Sequences of proteins named here, by UniProt entry; tags and fusion partners are left off. Residues count along the entry.
# UniProt P28223, whole entry D231F: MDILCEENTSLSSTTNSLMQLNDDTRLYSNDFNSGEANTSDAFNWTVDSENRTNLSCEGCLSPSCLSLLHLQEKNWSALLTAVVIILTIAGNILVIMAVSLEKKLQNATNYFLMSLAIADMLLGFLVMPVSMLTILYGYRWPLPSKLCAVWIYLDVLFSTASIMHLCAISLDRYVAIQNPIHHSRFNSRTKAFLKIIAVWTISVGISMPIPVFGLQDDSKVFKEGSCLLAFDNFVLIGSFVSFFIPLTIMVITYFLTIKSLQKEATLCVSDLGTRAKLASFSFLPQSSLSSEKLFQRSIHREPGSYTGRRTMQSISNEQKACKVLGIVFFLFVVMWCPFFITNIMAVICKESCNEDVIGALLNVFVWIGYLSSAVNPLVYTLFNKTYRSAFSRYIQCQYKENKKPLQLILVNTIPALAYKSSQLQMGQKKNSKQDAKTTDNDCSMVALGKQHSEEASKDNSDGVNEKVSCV
# UniProt P28335, 33-458: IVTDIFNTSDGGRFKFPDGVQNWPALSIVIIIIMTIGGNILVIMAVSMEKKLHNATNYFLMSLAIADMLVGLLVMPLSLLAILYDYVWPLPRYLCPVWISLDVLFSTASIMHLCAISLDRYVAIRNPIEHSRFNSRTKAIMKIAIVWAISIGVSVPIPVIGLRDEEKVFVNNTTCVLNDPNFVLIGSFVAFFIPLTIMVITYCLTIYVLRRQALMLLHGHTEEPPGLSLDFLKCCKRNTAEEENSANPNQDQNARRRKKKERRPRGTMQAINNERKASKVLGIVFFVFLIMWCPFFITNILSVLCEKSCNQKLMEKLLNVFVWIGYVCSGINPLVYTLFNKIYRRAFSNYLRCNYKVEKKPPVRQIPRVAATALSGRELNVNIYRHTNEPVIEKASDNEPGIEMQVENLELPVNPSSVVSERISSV
# UniProt P41595, whole entry: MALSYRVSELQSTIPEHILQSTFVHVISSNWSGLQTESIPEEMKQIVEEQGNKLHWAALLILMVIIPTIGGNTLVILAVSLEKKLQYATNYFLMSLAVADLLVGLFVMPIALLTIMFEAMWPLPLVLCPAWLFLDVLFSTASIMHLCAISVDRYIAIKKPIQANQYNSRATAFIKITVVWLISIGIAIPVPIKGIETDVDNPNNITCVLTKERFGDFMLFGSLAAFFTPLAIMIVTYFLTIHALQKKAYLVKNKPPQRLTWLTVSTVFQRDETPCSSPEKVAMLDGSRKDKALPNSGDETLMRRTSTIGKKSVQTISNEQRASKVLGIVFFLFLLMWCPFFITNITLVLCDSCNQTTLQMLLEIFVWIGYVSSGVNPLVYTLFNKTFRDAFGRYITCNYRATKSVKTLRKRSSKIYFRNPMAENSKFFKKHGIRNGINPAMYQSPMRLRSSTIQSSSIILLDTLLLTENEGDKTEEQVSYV
# Tests used:
# D231F^5.35 5-HT2AR = D231F^5.35 5-HT2AR (Homo sapiens, UniProt P28223, D231F); assay: Exploratory saturation radioligand binding at point-mutated 5-HT2AR; settings: membranes of transfected HEK293 cells (FIGS. 14A-14D)
# 5-HT2CR = 5-HT2CR (Homo sapiens, UniProt P28335); assay: Radioligand binding (competitive displacement and saturation), cell membranes; settings: read-out: Kd of radioligand at 5-HT2C; saturation binding; ± SEM, n=3
# 5-HT2BR = 5-HT2BR (Homo sapiens, UniProt P41595); assay: as above; settings: read-out: Kd of radioligand at 5-HT2B; saturation binding; ± SEM, n=2
substance,measurement,setting,value
[^3H]Mesulergine [reference compound],specific binding to D231F^5.35 5-HT2ARs,D231F^5.35 5-HT2AR,no specific binding is detected
same,Kd,5-HT2CR,1 ± 0.17 nM
same,Kd,5-HT2BR,2.82 ± 0.35 nM
